This assay has as its target human E-Selectin-IgG-chimera (Homo sapiens, UniProt P16581). Kind of assay: Sialyl Lewis X Tyrosine Sulfate Assay (sLex TSA), E-selectin. Further details: IgG (chimera partner). The conditions noted are these: inhibition of binding of sLex-tyrosine sulfate polyacrylamide ligand complex to selectin chimera. As for the experimental part:
Compounds of the present invention are assayed on a molecular level for their ability to inhibit the binding of P-, L-, or E-selectin chimeric molecules to sLe^x and tyrosinesulfate residues linked to a polymeric matrix as a PSGL-1 substitute. Selected IC50-values are determined.
Microtiter plates are coated overnight in carbonate buffer pH9.6 with goat anti human Fc mAB (10 μg/ml). After washing in assay buffer (25 mM 4-(2-hydroxyethyl)-1-piperazineethanesulfonic acid (HEPES), 150 mM NaCl, 1 mM CaCl2 pH7.4) and blocking (3% bovine serum albumin (BSA) in assay buffer) plates are incubated for 2 h at 37° C. with human P-Selectin-IgG-chimera (0.61 nM respectively 150 ng/mL) or human L-Selectin-IgG-chimera (0.61 nM respectively 89 ng/mL) or human E-Selectin-IgG-chimera (0.61 nM respectively 131 ng/mL). 5 μl of sLe^x-tyrosine sulfate polyacrylamide (1 mg/ml) carrying 15% sLe^x, 10% Tyrosine-sulfate and 5% biotin is complexed with 20 μl Streptavidin-Peroxidase solution (1 mg/ml) and 25 μl assay buffer without CaCl2. For use in the assay, the ligand complex is diluted 1:10000 in assay buffer and further diluted 1:1 with varying amounts of compounds in assay buffer incl. 2% DMSO. […] Bound sLe^x-Tyrosine sulfate ligand complex is determined by measuring optical density at 450 nm vs. 620 nm in a Fusion alpha-FP reader (sold from Packard Bioscience, Dreieich, Germany).

Chains of the proteins cited; added tags and fusions are not shown. Lines headed by an entry give the natural chain unless they say otherwise; changes in a name come on top. A line that says so, or that is headed by a name, gives the form on record, which may keep a tag or linker.
UniProt P16581, with tags, fused parts or gaps limits assumed: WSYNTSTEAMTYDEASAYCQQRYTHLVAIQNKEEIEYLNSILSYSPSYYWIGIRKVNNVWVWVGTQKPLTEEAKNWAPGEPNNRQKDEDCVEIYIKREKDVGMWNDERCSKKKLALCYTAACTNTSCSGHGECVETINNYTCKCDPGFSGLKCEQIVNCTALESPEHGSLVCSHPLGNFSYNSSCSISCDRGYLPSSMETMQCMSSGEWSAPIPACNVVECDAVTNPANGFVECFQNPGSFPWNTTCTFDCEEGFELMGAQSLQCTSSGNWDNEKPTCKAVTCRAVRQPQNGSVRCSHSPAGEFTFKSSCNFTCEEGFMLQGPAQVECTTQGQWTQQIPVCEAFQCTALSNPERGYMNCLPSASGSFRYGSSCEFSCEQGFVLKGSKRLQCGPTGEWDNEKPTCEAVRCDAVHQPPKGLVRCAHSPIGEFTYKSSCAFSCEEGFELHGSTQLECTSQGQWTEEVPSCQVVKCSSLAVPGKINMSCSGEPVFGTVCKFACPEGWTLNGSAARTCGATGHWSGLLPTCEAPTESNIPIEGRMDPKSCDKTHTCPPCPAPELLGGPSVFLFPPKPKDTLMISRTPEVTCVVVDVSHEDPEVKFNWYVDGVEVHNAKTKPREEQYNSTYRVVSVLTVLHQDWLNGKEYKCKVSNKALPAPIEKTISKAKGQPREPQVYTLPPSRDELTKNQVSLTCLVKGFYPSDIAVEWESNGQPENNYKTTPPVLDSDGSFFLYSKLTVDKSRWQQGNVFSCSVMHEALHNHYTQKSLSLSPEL

Each structure is given as a SMILES string.

Here are results for one compound from patent US7919532B2, “Hydroxylated aromatic compounds” (Revotar Biopharmaceuticals AG, priority 2005, dated 2011).

As for `O=C(O)Cc1cccc(-c2cc(CCCCCCc3ccc(O[C@H]4O[C@H](CO)[C@@H](O)[C@H](O)[C@@H]4O)c(-c4cccc(CC(=O)O)c4)c3)ccc2O[C@H]2O[C@H](CO)[C@@H](O)[C@H](O)[C@@H]2O)c1` [Bimosiamose, bimosiamose, reference compound], the IC50 (usually the point on the concentration scale where inhibition reaches its midpoint) was above 500 µM.
